Values of other authors as cited in patent US12606918B2, “Production of sanitizing fluid using in situ electrolysis” (APPLIED PHAGE GMBH, priority 2024, dated 2026).

Conditions: as ClO3^−

## [O-][Cl+2]([O-])O [chlorate]
  Arfd (acute reference dose): 0.0024 mg/kg BW·day
